Values quoted from earlier work as cited in patent US20200383906A1 (Evestra, Inc., priority 2019, published 2020).

Test system: SHBG
Conditions: therapeutic vaginal application of 1.0 mg estriol; cited from earlier work

With `C[C@]12CC[C@@H]3c4ccc(O)cc4CC[C@H]3[C@@H]1C[C@@H](O)[C@@H]2O` [estriol] as the compound, how does the “Increase in SHBG” value read?
The value was “no increase in SHBG”.
